Assay results reported in article PMC12022901 (Frontiers in Pharmacology, 2025).
Read-outs that look alike come from different tables or passages of the source.

Details: edoxaban 50 µg vs 60 mg

## CN1CCc2nc(C(=O)N[C@@H]3C[C@@H](C(=O)N(C)C)CC[C@@H]3NC(=O)C(=O)Nc3ccc(Cl)cn3)sc2C1 [Edoxaban, edoxaban]
At baseline
  dose-normalized AUC∞ GMR, microdose vs therapeutic dose: 0.74
At carbamazepine steady-state
  dose-normalized AUC∞ GMR, microdose vs therapeutic dose: 0.91
